Earlier results, collected in US8802114B2, “Pharmaceutical compositions of iron for oral administration” (priority 2011, dated 2014).

Conditions: from MSDS; cited from earlier work

## Ferrous Gluconate [Ferrous Gluconate FCC/USP*]
  Aqueous solubility (MSDS): 85 mg/mL (MSDS)
